These results are taken from US20020156248A1.

The target in the test is TAG-72 antigen on LS174-T cells. As to the kind of experiment: cell-based or functional assay.

On to “CC49/218 sFv with an engineered oligo-lysine C-terminal tail segment (sixteen lysine residues), clone EN266(7) (scFv)”, for which the transfection of LS 174-T cells by reporter plasmid pSEAP2 (secreted alkaline phosphatase chemiluminescence, X-ray film densitometry) is 8 fold.
